# AlphaSeq binding of Ab-95 light chain variants to a spike HR2 peptide

From the AlphaSeq antibody data of Engelhart et al. 2022 (doi:10.1038/s41597-022-01779-4), copy in the FLAb collection.

Target: peptide PDVDLGDISGINAS, taken from heptad repeat 2 (HR2) of SARS-CoV-2 spike.

Parent scFv Ab-95: VH joined to VL by a 15-residue (Gly4Ser)3 linker. Changes lie in the light chain CDRs alone.
VH: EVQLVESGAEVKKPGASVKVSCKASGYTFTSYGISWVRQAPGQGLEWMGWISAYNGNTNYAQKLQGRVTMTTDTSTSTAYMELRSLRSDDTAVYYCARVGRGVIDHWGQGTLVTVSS
VL: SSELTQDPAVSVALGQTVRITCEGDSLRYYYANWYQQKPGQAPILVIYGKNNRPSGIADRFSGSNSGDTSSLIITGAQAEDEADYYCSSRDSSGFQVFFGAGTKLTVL

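AAYL52 was designed without a model: most single CDR substitutions and a random sample of double and triple ones. In AlphaSeq, yeast of one mating type display the scFv and yeast of the other type display the target. The frequency of each diploid, read from paired DNA barcodes, reflects how well the two displayed proteins bind. Read counts were normalised to the haploid input and turned into Kd by a linear fit to BCL2-family pairs of known affinity, for each replicate. There are three technical replicates.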

The parent's light chain CDRs are EGDSLRYYYAN, GKNNRPS, SSRDSSGFQVF; each variant's own CDRs replace them letter for letter. Numbers give log10(Kd / nM), so 0 is 1 nM and 3 is 1 µM. Smaller is tighter. "nd" marks a missing value. The strain was present, yet no cells mated with the target were sequenced in that replicate, which points to weak or no binding. Three control strains display no target. For library AAYL52, 28% of the pairings with them gave a signal, with a median of 3.91 and one signal in twenty below 2.90, so weak values seen in few replicates may be background. The control count says in how many pairings with the empty strains this scFv gave a signal, with their mean in brackets.

CDR-L1 | CDR-L2 | CDR-L3 | replicates, log10 nM | empty controls
EGDSLRYYYAN | GKNNRTS | SARDSSGEQVF | 3.07 3.07 2.21 | 2/9 (4.50)
ECDSLRYYYAN | KKDNRPS | SSRDSSGFQVF | 3.54 nd nd | 2/9 (3.93)
EGDSKRYYKAN | GKNNRPH | SSRDSSGFQVF | nd nd nd | 1/9 (3.90)
EGDSLRYYYLN | GKNNRPS | RSRDRSGFQVF | 4.64 4.03 4.56 | 7/9 (4.25)
EGDSLRYYYYN | GKNNRPS | SSRDSSGFQVV | nd nd nd | 2/9 (3.87)
ETDSLRYYYAN | GKNNRPS | SKRDSSGFQVF | 3.28 nd 4.33 | 1/9 (4.16)
EGDSLRYYYAN | GENNRPS | SSRDSSGFQVF | 1.72 1.44 1.16 | 5/9 (4.03)
EGDTLRYYYAN | GNNNRPS | SSRDSSGFQKF | 3.31 3.35 nd | 4/9 (4.20)
EGDSLRYYYAN | GKTNRPS | SSGDSSGPQVF | 3.62 4.00 nd | 5/9 (4.16)
EGISLCYYYAN | GKNNRVS | SSRDSSGFQVF | 3.03 3.62 2.38 | 3/9 (3.53)
TGDSLRYYYAN | GKNNNPS | SIRDSSGFQVF | 5.45 5.28 nd | 3/9 (3.21)
EGDPLRYYYAY | GKNNRPS | SSRDSSGCQVF | nd nd nd | 1/9 (4.40)
EGDILRYYYNN | GKNNRPS | SLRDSSGFQVF | nd nd nd | 0/9
EGKSLMYYYAN | GKNNRPS | SSRDSSGFQVF | 2.02 2.14 2.72 | 3/9 (3.53)
EGDSVRYYYAN | GKENRPS | SSRDHSGFQVF | 3.33 3.05 3.93 | 2/9 (3.63)
EGDSLRHYYAN | EKNNRPS | SSGDSSGFQVF | nd 3.69 3.99 | 4/9 (4.11)
EGDSLRYYYAN | GSNNRPN | SSRDSSGFQVC | 2.52 4.39 3.76 | 2/9 (4.84)
RGDSLRYYYAN | GKNNRPS | SSRDSSGPQGF | 2.64 2.20 2.39 | 3/9 (3.46)
ECDSLRYYYAN | GKRNRPS | SSRDSSGFQVF | 4.60 nd nd | 3/9 (3.67)
EGDTLRYYYAI | GKNNRPS | SSRDSSTFQVF | 4.40 4.55 nd | 1/9 (4.03)
EGDLLRYYYAN | GKQNRPI | SSRDSSGFQVF | 3.57 2.73 nd | 3/9 (4.18)
AGDHLRYYYAN | GKNNRPI | SSRDSSGFQVF | 2.69 2.56 2.33 | 5/9 (4.04)
EGDGLRYYYAN | GKNNRPS | SSRDSSGFQKH | 2.24 2.30 1.05 | 2/9 (3.47)
EGDSLRYYYAN | GKMNSPS | SSRDSSGPQVF | 4.79 4.82 nd | 6/9 (3.93)
EGDSLRYYYAN | GKNNRPS | SSVDSFGFQVF | 4.37 2.77 2.96 | 2/9 (3.92)
EGDSLRYYYFS | GKNNRPS | YSRDSSGFQVF | 3.31 nd nd | 4/9 (4.08)
EGDSLRYYYAN | GKNNRPS | SNVDSSGFQVS | 3.76 5.72 nd | 4/9 (3.57)
EGDSLRYTYAN | GKNNRPN | SSADSSGFQVF | nd nd 2.27 | 2/9 (3.10)
EGDSLRYYYAN | GKNNEPS | SSRDSKGFQVY | 4.25 5.07 4.33 | 4/9 (3.43)
EGDHLRYYYAN | GENDRPS | SSRDSSGFQVF | 3.20 3.82 4.00 | 4/9 (4.18)
EYDSLRYYYAN | VKNNRPS | SSRDVSGFQVF | nd 4.38 nd | 1/9 (3.41)
EGDSLRYKYAN | GKHNRPS | SSRDSSGFQVK | 2.99 nd 4.13 | 2/9 (2.77)
EGDSLMYYYAN | GKRNRPS | MSRDSSGFQVF | nd 4.63 nd | 5/9 (4.03)
EGDSRRYYTAN | GKNNRPS | SSRDSSGIQVF | 3.52 nd 3.46 | 2/9 (3.73)
EFESLRYYYAN | GKNNRDS | SSRDSSGFQVF | nd 4.51 4.33 | 5/9 (3.95)
EEDKDRYYYAN | GKNNRPS | SSRDSSGFQVF | 3.08 nd 2.88 | 4/9 (3.47)
EDDLLRYYYAN | GKNNTPS | SSRDSSGFQVF | 2.69 2.60 2.40 | 0/9
EGDSLRYYYAN | GYNNRPS | SSPDSSGVQVF | 4.36 5.21 nd | 4/9 (3.74)
EGDSLRYYQGN | KKNNRPS | SSRDSSGFQVF | nd 4.69 nd | 1/9 (4.18)
EGDSLRYYYSN | GKNNRPS | SSRDFSGFQNF | nd 3.01 3.68 | 2/9 (3.37)
EGDSLRYIYAN | FKNNRPS | SSRDSSNFQVF | 3.42 nd nd | 2/9 (4.39)
EGDSLRYMYAF | GKNNMPS | SSRDSSGFQVF | nd nd 3.74 | 3/9 (3.89)
EGDLLRYYYAN | GKNNHPS | SSRDSDGFQVF | nd nd nd | 2/9 (3.62)
EGYSLRRYYAN | GKNNRPS | SSRDASGFQVF | 2.71 2.28 1.99 | 3/9 (4.31)
EGDSLRYEYAN | GKNQRPT | SSRDSSGFQVF | 1.11 1.31 0.75 | 3/9 (3.71)
EGDSLRYYYSN | VKNNRPS | SSRDSSGFQVF | 5.30 nd nd | 2/9 (5.30)
EGDSLRYYYAN | GGNERPS | SLRDSSGFQVF | 3.22 2.81 3.84 | 4/9 (3.72)
EGDSLRYYYAN | GHNNRPS | SSRDSSGFTVF | 3.62 3.17 nd | 1/9 (3.33)
EGDSARYKYAN | GKNNRPS | SSRDSSGFQVC | 3.35 3.29 nd | 2/9 (4.35)
EGDSLRYCYAN | GKNNRPS | SSRDSSVGQVF | nd nd nd | 3/9 (4.86)
EGISLVYYYAN | GKNNRPS | SSRDSSRFQVF | 4.44 nd nd | 2/9 (4.66)
EGDSLRYYYAN | GKNNRPG | FSRDSSGFQVF | 3.11 3.18 2.69 | 1/9 (3.22)

Picked from the list: the 6 lowest averages where every replicate gave a value.

CDR-L1 | CDR-L2 | CDR-L3 | replicates, log10 nM | empty controls
EGDSLRYEYAN | GKNQRPT | SSRDSSGFQVF | 1.11 1.31 0.75 | 3/9 (3.71)
EGDSLRYYYAN | GENNRPS | SSRDSSGFQVF | 1.72 1.44 1.16 | 5/9 (4.03)
EGDGLRYYYAN | GKNNRPS | SSRDSSGFQKH | 2.24 2.30 1.05 | 2/9 (3.47)
EGKSLMYYYAN | GKNNRPS | SSRDSSGFQVF | 2.02 2.14 2.72 | 3/9 (3.53)
EGYSLRRYYAN | GKNNRPS | SSRDASGFQVF | 2.71 2.28 1.99 | 3/9 (4.31)
RGDSLRYYYAN | GKNNRPS | SSRDSSGPQGF | 2.64 2.20 2.39 | 3/9 (3.46)